Screening results from PubChem BioAssay.
Yeast UUG start-1 – yeast start codon fidelity modulation | S. cerevisiae UUG-firefly luciferase reporter, luminescence/redox ratio | activity score, % at 18.7 µM | hit rate 0.13% among 350,000 | AID 602363;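 active means replicate mean at a twofold rise or more, about +100% in these data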;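 further: firefly luciferase made from a UUG start codon reports start codon fidelity; reporter light over untreated wells divided by growth signal over untreated wells; some hits fall short of that in this replicate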
ARNT TACC3 PPI – disruptors of ARNT/TACC3 protein interaction, primary screen, biochemical, AlphaScreen, single concentration. Transforming acidic coiled-coil-containing protein 3 (Homo sapiens), Q9Y6A5. AlphaScreen His-ARNT PAS-B/GST-TACC3 binding, luminescence; TACC3 fragment carries E629A point mutation. inhibition, % at 9.99 µM. 390,000 tested, 0.66% active;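 active means mean inhibition of replicates at least 50% and at least half of replicates each reaching 50%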;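 further: 0% = complete ARNT plus TACC3 wells and 100% = ARNT alone without TACC3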
AF4-AF9 inh – inhibitors of AF4 peptide binding to AF9, primary screen, biochemical, AlphaScreen, biotin-AF4 peptide, FLAG-AF9, single point. AID 651704, 2012. inhibition, % at 10 µM. 350,000 tested, 0.47% active. Protein AF-9 (Homo sapiens), P42568;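 active means every replicate reaching a set inhibition limit, whatever the replicate mean, cut at about 25% in these data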;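 further: 0% = plate neutral control median and 100% = total signal loss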
ERAP1 inh – human ERAP1 aminopeptidase inhibitors, primary screen, biochemical, single point, plate reader; Endoplasmic reticulum aminopeptidase 1 (Homo sapiens), Q9NZ08; recombinant ERAP1, Leu-AMC fluorescence, 60 min; inhibition, % at 10.7 µM; 340,000 tested, 0.15% active; AID 652197, 2013;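 active means mean replicate inhibition of at least 30%, or all replicates individually reaching that 30% level; inactive means mean below 30% and not every replicate reaching it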;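 further: 0% = neutral control wells and 100% = L-leucinethiol positive control wells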
S100A4 MyoIIA – inhibitors of S100A4-myosin IIA peptide binding, primary screen, biochemical, fluorescence polarization, TAMRA-MyoIIA peptide; AID 652163, 2013; Protein S100-A4 (Homo sapiens), P26447; 360,000 tested, 0.14% active; inhibition, % at 10.7 µM;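 active means mean inhibition of at least 70% across replicates, with every replicate also reaching that level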
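incubation = readout 5 min after mixing, signal stable up to 60 min | system = S100A4 monomer protein | buffer or medium = HEPES pH 7.2 with CaCl2, KCl, NaCl, DTT, Triton | benchmarks = neutral control DMSO, positive control TFP | also added = fluorescent myosin IIA peptide, 5 nM | compound dosing = one concentration per compound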
E-selectin induc – E-selectin induction in HUVECs, primary screen, imaging, HUVEC, immunofluorescence imaging, single point; P16581; AID 686992, 2013; activation, % at 7.58 µM; 260,000 tested, 0.37% active; normalized: neutral wells 0, TNF-alpha wells 100;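 active means mean E-selectin-positive cell signal at least 10% of the positive control, reached in at least 60% of replicates, without over 20% cell loss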
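assay system = HUVEC, human umbilical vein endothelial cells | input = 3,000 HUVEC seeded per well | medium = EGM-2 growth medium on 0.1% gelatin-coated wells | dosing = one compound dose added by pin transfer | signal = immunofluorescence imaging | read-out basis = % PE-positive cells | control set = TNF-alpha, DMSO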
Yeast UUG start-2 – enhancers of UUG start codon usage in yeast, dose response, S. cerevisiae, UUG firefly luciferase, cherry-pick, set 2. luminescence, 4 h; 100% means double the DMSO signal. activation, % at 38 µM. shares compounds with Yeast UUG start-1. AID 652061, 2013. 540 tested, under 10 active;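 active means signal increase whose fitted curve reaches an absolute level of 40 at a concentration under 10 µM; inactive means activity opposite to the expected increase, or the rest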
Numbers without * were called inactive; i = inactive; nt = no result given; ! = a repeat was not active. Only some compounds are listed: those with a hit (about 1.3% of all), similar ones and a draw of the others.

Protein sequences, listed by entry. Tags and fused reporters are not part of them.
Protein AF-9 (Homo sapiens), P42568, UniProt P42568, whole entry, looked up: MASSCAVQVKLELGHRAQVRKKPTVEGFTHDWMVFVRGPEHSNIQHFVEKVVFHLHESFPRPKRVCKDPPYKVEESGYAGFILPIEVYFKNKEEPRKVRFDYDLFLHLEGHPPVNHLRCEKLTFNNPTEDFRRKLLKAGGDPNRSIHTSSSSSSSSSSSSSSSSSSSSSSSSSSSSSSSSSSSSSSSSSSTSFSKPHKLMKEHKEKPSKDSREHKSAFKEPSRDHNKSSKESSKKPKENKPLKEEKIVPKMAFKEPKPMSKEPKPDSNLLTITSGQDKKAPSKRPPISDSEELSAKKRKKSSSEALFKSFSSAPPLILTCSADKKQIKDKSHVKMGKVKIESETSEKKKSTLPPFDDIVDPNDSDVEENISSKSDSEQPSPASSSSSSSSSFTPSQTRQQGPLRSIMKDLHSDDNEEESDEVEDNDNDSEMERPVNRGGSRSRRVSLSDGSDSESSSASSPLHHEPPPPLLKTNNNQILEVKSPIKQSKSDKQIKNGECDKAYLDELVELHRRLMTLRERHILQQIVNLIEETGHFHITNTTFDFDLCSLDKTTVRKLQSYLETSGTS

1	C[C@@H]1CN([C@H](C)CO)C(=O)c2cc(NS(C)(=O)=O)ccc2O[C@@H](C)CCCCO[C@H]1CN(C)S(=O)(=O)c1ccc(F)cc1
2	O=S(=O)(N[C@@H]1CC[C@H](CCn2cc(C3CC3)nn2)O[C@H]1CO)c1ccc(Cl)cc1
3	CO[C@H]1CN(C)C(=O)c2ccc(NC(=O)c3ccccc3)cc2OC[C@@H](C)N(CC2CC2)C[C@H]1C
4	COc1ccc(S(=O)(=O)N(C)C[C@@H]2Oc3ccc(NS(=O)(=O)c4ccc(F)cc4)cc3CC(=O)N([C@@H](C)CO)C[C@H]2C)cc1
5	CNC[C@@H]1Oc2cc(C#CC3CCCCC3)ccc2S(=O)(=O)N([C@@H](C)CO)C[C@@H]1C
6	CNC[C@H]1Oc2cc(C#CC3CCCCC3)ccc2S(=O)(=O)N([C@H](C)CO)C[C@@H]1C
7	C[C@H](CO)N1C[C@H](C)[C@H](CN(C)Cc2ccc(C(=O)O)cc2)Oc2cc(C#CCC3CCCC3)ccc2S1(=O)=O
8	C[C@H]1CN([C@@H](C)CO)S(=O)(=O)c2ccc(C#CCC3CCCC3)cc2O[C@@H]1CN(C)C(=O)CN(C)C
Compound	1	2	3	4	5	6	7	8
ERAP1 inh	1	2	-5	0	0	-3	-2	6
S100A4 MyoIIA	4	-10	8	-8	2	-5	4	-7
Yeast UUG start-2	nt	nt	nt	nt	nt	i	i	nt
E-selectin induc	0	0	0	0	2	0	0	0
AF4-AF9 inh	1	-2	-2	0	-1	6	9	12
ARNT TACC3 PPI	-4	nt	-4	nt	13	11	7	8
Yeast UUG start-1	12	-3	-4	nt	1	161*	182*	32

9	C[C@@H]1CN([C@H](C)CO)S(=O)(=O)c2ccc(C#CCC3CCCC3)cc2O[C@H]1CN(C)C(=O)CN(C)C
10	C[C@H](CO)N1C[C@H](C)[C@@H](CN(C)C(=O)c2cnccn2)Oc2cc(C#CCC3CCCC3)ccc2S1(=O)=O
11	Cc1noc(C)c1NC(=O)Nc1ccc2c(c1)CC(=O)N([C@@H](C)CO)C[C@H](C)[C@@H](CN(C)Cc1ccc(C(=O)Nc3ccccc3N)cc1)O2
12	CN1[C@@H]2Cn3c(ccc(-c4ccc(F)cc4)c3=O)[C@H]1[C@@H](C(=O)NC1CCCCC1)[C@@H]2CO
13	C[C@H]1CN([C@@H](C)CO)C(=O)c2cc(C#CCc3ccccc3)cnc2O[C@@H]1CN(C)C(=O)C1CCOCC1
14	CCCNC(=O)[C@@H]1[C@@H](CO)[C@@H]2Cn3c(ccc(-c4ccccc4F)c3=O)[C@@H]2N1C(=O)CC
15	CC(=O)N1[C@@H]2c3ccc(C4=CCCCC4)c(=O)n3C[C@@H]2[C@@H](CO)[C@@H]1C(=O)N1CCCCC1
16	O=C1CCC(=O)N1OCCCOc1ccc2c(c1)CCC2
Compound	9	10	11	12	13	14	15	16
ERAP1 inh	6	14	-2	-1	0	0	3	nt
S100A4 MyoIIA	-13	-4	0	-9	7	-34	4	nt
Yeast UUG start-2	i	-7	nt	nt	nt	nt	nt	-1
E-selectin induc	3	0	-3	0	0	-2	0	nt
AF4-AF9 inh	8	1	0	-1	-1	-1	-2	nt
ARNT TACC3 PPI	5	-4	nt	-7	-9	-2	11	-3
Yeast UUG start-1	112*	121*!	nt	-8	3	nt	nt	active

17	O=C1CCC(=O)N1OCCOc1ccc2c(c1)CCC2
18	C[C@H]1CN([C@@H](C)CO)C(=O)c2cccc(NC(=O)Nc3ccc4c(c3)OCO4)c2O[C@H]1CN(C)C(=O)Nc1ccc2c(c1)OCO2
19	Cc1c(C(C)(C(=O)O)c2c(C)n(C)c3ccccc23)c2ccccc2n1C
20	Cc1c(P(=O)(c2ccccc2)c2ccccc2)c2ccccc2n1C
21	O=C(Nc1ccccc1)N1C[C@@H]2[C@H](c3ccccc31)[C@@H](CO)N2C(=O)c1ccncc1
22	COc1ccc(S(=O)(=O)N[C@H]2C=C[C@H](CC(=O)N3CCC(Cc4ccccc4)CC3)O[C@@H]2CO)cc1
23	CO[C@H]1CN(C)C(=O)c2ccc(NC(=O)c3nc4ccccc4s3)cc2OC[C@H](C)N(Cc2ccncc2)C[C@@H]1C
24	CO[C@H]1CN(C)C(=O)c2ccc(NC(=O)c3nc4ccccc4s3)cc2OC[C@@H](C)N(Cc2ccncc2)C[C@H]1C
Compound	17	18	19	20	21	22	23	24
ERAP1 inh	nt	2	4	-2	1	0	-2	-1
S100A4 MyoIIA	nt	9	-12	-8	-2	-5	-37	-2
Yeast UUG start-2	nt	nt	nt	2	nt	nt	nt	i
E-selectin induc	nt	0	nt	0	1	1	0	0
AF4-AF9 inh	nt	9	7	1	-13	2	9	3
ARNT TACC3 PPI	-2	13	nt	nt	nt	nt	-1	1
Yeast UUG start-1	-18	-3	nt	173*	-13	8	1	140*

3 entries from above, with bars between the fields:
nr | Structure | ERAP1 inh | S100A4 MyoIIA | Yeast UUG start-2 | E-selectin induc | AF4-AF9 inh | ARNT TACC3 PPI | Yeast UUG start-1
19 | Cc1c(C(C)(C(=O)O)c2c(C)n(C)c3ccccc23)c2ccccc2n1C | 4 | -12 | nt | nt | 7 | nt | nt
20 | Cc1c(P(=O)(c2ccccc2)c2ccccc2)c2ccccc2n1C | -2 | -8 | 2 | 0 | 1 | nt | 173*
21 | O=C(Nc1ccccc1)N1C[C@@H]2[C@H](c3ccccc31)[C@@H](CO)N2C(=O)c1ccncc1 | 1 | -2 | nt | 1 | -13 | nt | -13

The results go on:
25	O=C(O)C(O)c1ccccc1 (stereo not drawn)
26	O=C(O)C(c1ccccc1)C(c1ccccc1)c1ccccc1 (stereo not drawn)
27	CCc1cccc2c(C(=O)C(F)(F)F)cn(CC(=O)NCC3CCCO3)c12 (stereo not drawn)
28	CC(C)C(=O)c1cn(CC(=O)NCC2CCCO2)c2ccccc12 (stereo not drawn)
29	CCc1cccc2c(C(=O)C(F)(F)F)cn(CC(=O)N3CCOCC3)c12
30	CCCn1cc(SCC(=O)NCC2CCCO2)c2ccccc21 (stereo not drawn)
31	Fc1cccc(C2NN=C(c3ccccc3)S2)c1 (stereo not drawn)
32	COc1ccccc1NC(=O)N(C)C[C@@H]1Oc2cc(Br)ccc2S(=O)(=O)N([C@@H](C)CO)C[C@H]1C
33	COc1ccc(NC(=O)N(C)C[C@@H]2Oc3cc(-c4ccncc4)ccc3S(=O)(=O)N([C@H](C)CO)C[C@@H]2C)cc1
34	Cc1ccccc1-c1ccc2c(c1)O[C@H](CN(C)C(=O)c1ccccn1)[C@@H](C)CN([C@@H](C)CO)S2(=O)=O
Compound	25	26	27	28	29	30	31	32	33	34
ERAP1 inh	-4	0	-3	nt	-2	28	-1	0	-1	0
S100A4 MyoIIA	-2	-2	-4	nt	33	-2	3	12	20	10
Yeast UUG start-2	nt	2	-6	8	nt	nt	-13	i	i	nt
E-selectin induc	0	nt	0	nt	nt	3	nt	0	0	0
AF4-AF9 inh	0	7	-2	nt	-2	-4	-1	1	13	0
ARNT TACC3 PPI	1	nt	nt	-4	-11	nt	nt	7	-4	-11
Yeast UUG start-1	3	431*	nt	449*	nt	-12	267*	109*	172*	0
